In brackets after ≈: the same amount, converted by molar mass.
Key:
[1] = tested on: Mycobacterium tuberculosis; assay: microbe, parasite or virus in culture; details: H37Rv, 168 h
[2] = biological target: Bifunctional epoxide hydrolase 2 (Homo sapiens, UniProt P34913); assay: Inhibition of human recombinant soluble epoxide hydrolase using CMNPC as substrate after 10 mins by fluorescent assay

Amino acid sequences for entries named in this document (tags omitted).
UniProt P34913, whole entry: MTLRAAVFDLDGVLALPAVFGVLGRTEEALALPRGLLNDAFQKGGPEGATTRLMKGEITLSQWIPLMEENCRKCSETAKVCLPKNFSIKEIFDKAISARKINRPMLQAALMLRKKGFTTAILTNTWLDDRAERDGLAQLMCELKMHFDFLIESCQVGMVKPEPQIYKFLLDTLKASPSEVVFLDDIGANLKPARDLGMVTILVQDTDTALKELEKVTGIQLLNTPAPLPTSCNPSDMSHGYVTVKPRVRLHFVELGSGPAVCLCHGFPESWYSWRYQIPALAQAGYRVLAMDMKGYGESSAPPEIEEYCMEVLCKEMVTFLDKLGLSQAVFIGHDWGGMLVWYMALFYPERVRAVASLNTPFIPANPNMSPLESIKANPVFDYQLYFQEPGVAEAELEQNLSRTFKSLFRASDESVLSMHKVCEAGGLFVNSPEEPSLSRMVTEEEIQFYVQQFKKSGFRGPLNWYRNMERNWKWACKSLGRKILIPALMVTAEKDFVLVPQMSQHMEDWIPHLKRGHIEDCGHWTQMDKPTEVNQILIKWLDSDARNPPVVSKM

## O=C(Nc1ccc(F)c(F)c1F)NC12CC3CC(CC(C3)C1)C2
[1]
  MIC: 0.4 mg/L (≈ 1.23 µM)
[2]
  IC50: 0.4 nM

From ChEMBL document CHEMBL1817626, “The structure-activity relationship of urea derivatives as anti-tuberculosis agents” (Bioorg Med Chem, 2011)
